Reference: patent US8124647B2 (priority 2002, dated 2012)
Like-named read-outs stand apart in the source and are kept apart here.

Chains of the proteins cited; added tags and fusions are not shown.
UniProt P10275, whole entry: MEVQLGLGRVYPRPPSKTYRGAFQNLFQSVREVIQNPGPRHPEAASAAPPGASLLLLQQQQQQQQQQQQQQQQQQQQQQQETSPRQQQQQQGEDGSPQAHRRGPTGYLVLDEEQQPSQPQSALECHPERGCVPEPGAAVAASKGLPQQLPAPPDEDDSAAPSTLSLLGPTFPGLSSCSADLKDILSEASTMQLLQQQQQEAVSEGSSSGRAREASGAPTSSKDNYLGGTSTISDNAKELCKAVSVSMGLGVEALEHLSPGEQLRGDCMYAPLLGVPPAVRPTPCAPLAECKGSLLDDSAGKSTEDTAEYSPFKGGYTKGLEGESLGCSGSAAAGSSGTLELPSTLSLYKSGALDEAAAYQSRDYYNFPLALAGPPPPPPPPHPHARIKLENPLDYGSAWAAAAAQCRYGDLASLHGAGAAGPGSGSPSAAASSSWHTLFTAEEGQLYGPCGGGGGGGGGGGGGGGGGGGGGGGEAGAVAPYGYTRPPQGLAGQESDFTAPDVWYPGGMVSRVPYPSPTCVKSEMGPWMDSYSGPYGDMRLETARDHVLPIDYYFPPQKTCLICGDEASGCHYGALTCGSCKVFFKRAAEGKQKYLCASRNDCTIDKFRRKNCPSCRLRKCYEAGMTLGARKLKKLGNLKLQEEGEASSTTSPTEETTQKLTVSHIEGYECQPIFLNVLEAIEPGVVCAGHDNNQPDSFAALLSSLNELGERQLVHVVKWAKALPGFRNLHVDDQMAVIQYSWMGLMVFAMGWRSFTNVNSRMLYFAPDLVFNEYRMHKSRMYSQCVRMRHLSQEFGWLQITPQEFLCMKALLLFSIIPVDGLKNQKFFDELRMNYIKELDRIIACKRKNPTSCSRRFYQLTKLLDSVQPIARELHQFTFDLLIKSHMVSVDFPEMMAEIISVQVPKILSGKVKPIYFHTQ

Legend:
human androgen receptor [1] = target: T1, human androgen receptor (Homo sapiens, UniProt P10275); conditions: in the presence of 1 nM DHT
human androgen receptor [2] = target: T1, human androgen receptor; assay: androgenic activity (EC50 and intrinsic activity), transactivation bioassay in CHO-AR-pMMTV-LUC cells (Table 4); assay type: cell-based
Experimental: Compounds were tested for their Androgen Receptor activity in a transactivation assay and in a binding assay.
The (anti-)androgenic activity of test compounds (EC50 and intrinsic activity) was determined in an in vitro bioassay of Chinese hamster ovary (CHO) cells stably transfected with the human androgen receptor expression plasmid and a reporter plasmid in which the MMTV-promoter is linked to the luciferase reporter gene. The cell-line CHO-AR-pMMTV-LUC 1G12-A5-CA is described in Schoonen et al. (2000), Journal of Steroid Biochemistry and Molecular Biology 74(4):213-222. The antiandrogenic activity of a test compound was determined by the inhibition of the transactivation via the androgen receptor of the enzyme luciferase in the presence of 1 nM DHT (5α-dihydrotestosterone, 17β-hydroxy-5α-androstan-3-one). Intrinsic activity of antiandrogenic activity was determined in the presence of the reference antiandrogen 2-Hydroxy-2-methyl-N-(4-nitro-3-trifluoromethyl-phenyl)-propionamide(Hydroxyflutamide), and set at 100%. For androgenic activity, maximal intrinsic activity in the presence of 100 nM DHT was set at 100%.

COc1ccc2c(Sc3ccccc3[N+](=O)[O-])cn(CCN3CCOCC3)c2c1
ant efficacy (human androgen receptor [1]; reference antiandrogen Hydroxyflutamide set at 100%): + (+ between 0.50 and 0.80) | EC50 (human androgen receptor [1]; read-out: ant EC50, antiandrogenic activity): < 1000 nM | ago efficacy (human androgen receptor [2]; maximal intrinsic activity in the presence of 100 nM DHT set at 1.00): ± (± between 0.20 and 0.50) | EC50 (human androgen receptor [2]; read-out: ago EC50, androgenic activity, CHO-AR-pMMTV-LUC cells): 1 to 10 µM
